Experiment [1] deals with human α7 receptors (Homo sapiens, UniProt P36544). Conditions: oocytes, voltage clamp; relative to ACh.
Experiment [2] relates to opioid receptor. Conditions: Ki opioid site and sigma site 2 versus α7.

Protein sequences, listed by entry. Tags and fused reporters are not part of them. Residues count along the entry.
UniProt P36544, 23-502: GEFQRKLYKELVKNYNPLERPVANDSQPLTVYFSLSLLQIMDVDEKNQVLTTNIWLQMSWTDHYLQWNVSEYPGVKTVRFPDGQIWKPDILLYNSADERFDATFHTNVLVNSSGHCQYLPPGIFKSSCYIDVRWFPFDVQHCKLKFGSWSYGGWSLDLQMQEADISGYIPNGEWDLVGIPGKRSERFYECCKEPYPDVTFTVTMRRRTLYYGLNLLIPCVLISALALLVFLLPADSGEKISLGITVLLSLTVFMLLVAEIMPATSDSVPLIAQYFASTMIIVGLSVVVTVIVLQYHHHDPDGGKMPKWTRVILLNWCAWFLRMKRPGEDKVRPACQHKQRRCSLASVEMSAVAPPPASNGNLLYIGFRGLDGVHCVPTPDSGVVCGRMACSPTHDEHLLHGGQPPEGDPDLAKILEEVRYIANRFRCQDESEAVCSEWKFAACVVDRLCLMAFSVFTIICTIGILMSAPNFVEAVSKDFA

Structures are written as SMILES. “And” between values parts separate entries of the source, which are not always exact repeats. Equal values may be shown once.

For the compound `O=C(N[C@@H]1C2CCN(CC2)[C@H]1Cc1cccnc1)c1cc2ccccc2o1` [Compound A, (2S,3R)—N-(2-((3-pyridinyl)methyl)-1-azabicyclo[2.2.2]oct-3-yl)benzofuran-2-carboxamide], in experiment [1], the “α7 Function Emax (% ACh)” value is 100 % ACh and 100 ± 7 % ACh. The “separation from the binding affinity at α7” value in experiment [2] is listed as “greater than 1000 fold”.

The record behind these values is patent US20110059947A1, “ALPHA 7 NICOTINIC AGONISTS AND ANTIPSYCHOTICS” (Targacept, Inc., priority 2008, published 2011).
